From article PMC3968014, “Design and Synthesis of a Library of Lead-Like 2,4-Bisheterocyclic Substituted Thiophenes as Selective Dyrk/Clk Inhibitors” (PLoS ONE, 2014)

Sequences of proteins named here, by UniProt entry; tags and fusion partners are left off.
UniProt Q9Y463, whole entry: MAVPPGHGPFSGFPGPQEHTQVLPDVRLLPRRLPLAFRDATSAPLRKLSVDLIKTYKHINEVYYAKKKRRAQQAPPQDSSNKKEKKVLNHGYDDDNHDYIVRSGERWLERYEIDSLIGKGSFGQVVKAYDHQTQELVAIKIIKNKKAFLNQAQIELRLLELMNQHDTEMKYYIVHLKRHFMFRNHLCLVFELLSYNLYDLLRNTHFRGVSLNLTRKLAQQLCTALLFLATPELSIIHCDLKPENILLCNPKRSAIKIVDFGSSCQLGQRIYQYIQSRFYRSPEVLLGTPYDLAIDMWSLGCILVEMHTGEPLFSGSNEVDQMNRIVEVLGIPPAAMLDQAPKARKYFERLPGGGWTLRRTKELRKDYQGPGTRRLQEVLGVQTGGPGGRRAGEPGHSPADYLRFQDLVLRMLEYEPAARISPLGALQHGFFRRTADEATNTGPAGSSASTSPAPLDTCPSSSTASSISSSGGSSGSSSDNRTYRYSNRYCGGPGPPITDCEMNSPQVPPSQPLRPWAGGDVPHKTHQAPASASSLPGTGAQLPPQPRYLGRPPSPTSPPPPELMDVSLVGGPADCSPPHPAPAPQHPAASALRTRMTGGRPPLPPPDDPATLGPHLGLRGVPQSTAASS

Biological target: T1, Dyrk1B (Homo sapiens, UniProt Q9Y463)
T1 construct: purchased Life Technologies PV4649 (LOT # 877059G)
Experiment: Dyrk1B kinase assay (32P-ATP, Woodtide)
Type: biochemical

With `c1cncc(-c2csc(-c3cncs3)c2)c1` [Compound 48, 3-[5-(1,3-thiazol-5-yl)thiophen-3-yl]pyridine] as the molecule, how does the “LE (Dyrk1B)” value read?
The value was 0.65 kcal/(mol*HA).
